Target: focal adhesion in fixed and permeabilized Xenopus laevis XTC cells (Xenopus laevis)
Experiment: single-molecule speckle (SiMS) TIRF imaging of EGFP-fused probe (cell lysate) on fixed, permeabilized XTC cells; exponential fit of speckle lifetimes

Src fragment (amino acid residues 1-251 of sequence number 16), EGFP-3xFLAG fused at the C terminus
half-life: 0.161 s

Src fragment (amino acid residues 3-251 of sequence number 16), EGFP-3xFLAG fused at the C terminus
half-life: 0.141 s

Source: US10858688
